Tested on: BL21 E. coli cells
Conditions: HPG 50 μg/ml, 30 min to 16 h, Alexa488-azide

## C#CCCC(N)C(=O)O (stereo not shown) [HPG, homopropargylglycine]
  incorporation of methionine analogue into expressed protein: acquire HPG from the media and incorporate the methionine analogue in expressed protein

Source: US10745735B2 (priority 2013, dated 2020)
